According to PubChem BioAssay AID449763 (Sanford-Burnham Center for Chemical Genomics, 2010):
Only a part is listed here, and it is no random draw. Activity calls are given as the source filed them.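 Rule for the calls: active = at 10 µM dose, activation of 40% or more, normalized to positive control; inactive = the rest.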

assay: PERK-eIF2a-CHOP pathway stimulators – cell-based, CHO-CHOP luciferase reporter, luminescence, uHTS, primary screen (AID 449763); settings: UPR activation, at 10 µM, stronger effect = higher value, percent of tunicamycin response over DMSO baseline;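 note: 100% = tunicamycin at 10 µg/mL and 0% = DMSO alone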
Method in brief: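 System: CHO-CHOP luciferase reporter cell line; amount: 500 cells/well; buffer or medium: F12 medium containing 10% fetal bovine serum; incubation: 6 h compound exposure at 37 °C after overnight seeding; measured by: luciferase luminescence after 10 min with Steady-Glo reagent; evaluation: % reporter activation, DMSO baseline versus tunicamycin full activation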

| Compound | activation |
| --- | --- |
| N#CC1(Nc2ccccc2)CCN(Cc2ccccc2)CC1 | inactive: 1.75% |
| O=C(NCC1(N2CCCCC2)CCCCC1)c1ccc(Cl)s1 | inactive: -0.916% |
| COc1ccc(Cl)cc1C(=O)NCC1(N2CCOCC2)CCCCC1 | inactive: 0.491% |
| CCOC(=O)N1CCC(Nc2ccc(OC)cc2)CC1 | inactive: 2.86% |
| CCOc1ccc(C)cc1CN(CCCl)CCCl | inactive: -0.894% |
| O=C(NCC1(N2CCCCC2)CCCCC1)c1ccc(F)cc1 | inactive: -1.69% |
| CCCCOc1ccc(C(=O)NCC2(N3CCOCC3)CCCCC2)cc1 | inactive: -0.378% |
| COc1ccc(NC2CCN(CCc3ccccc3)CC2)c(OC)c1 | inactive: -0.416% |
| CCOC(=O)N1CCC(Nc2ccc(F)cc2)CC1 | inactive: -0.485% |
| CCOC(=O)N1CCC(Nc2cccc(C)c2)CC1 | inactive: 0.681% |
| Cc1ccc(OCC(C)C)c(CN(CCCl)CCCl)c1 | inactive: 5.7% |
| COc1cc(OC)cc(C(=O)NCC2(N3CCCCC3)CCCCC2)c1 | inactive: -2.32% |
| Cc1ccc(C(=O)NCC2(N3CCCCC3)CCCCC2)o1 | inactive: 0.53% |
| Fc1ccccc1NC1CCN(Cc2ccccc2)CC1 | inactive: -1.9% |
| CCN1CCC(Nc2cccc(F)c2)CC1 | inactive: -1.1% |
| O=C(NCC1(N2CCCCC2)CCCCC1)c1ccco1 | inactive: -1.81% |
| CN(C)c1ccc(C(=O)NCC2(N3CCCCC3)CCCCC2)cc1 | inactive: 5.07% |
| CCOc1ncccc1C(=O)NCC1(N2CCOCC2)CCCCC1 | inactive: -1.79% |
| CN1CCC(Nc2ccc(F)c(Cl)c2)CC1 | inactive: 1.51% |
| CC(C)(C)OC(=O)N1CCC(Nc2ccccc2)CC1 | inactive: 1.14% |

| Compound | activation |
| --- | --- |
| O=C(O)C1(Nc2ccccc2)CCN(Cc2ccccc2)CC1 | inactive: -0.415% |
| CCCOc1ccc(C(=O)NCC2(N(C)C)CCCCC2)cc1 | inactive: 1.91% |
| COc1cc(OC)cc(C(=O)NCC2(N3CCOCC3)CCCCC2)c1 | inactive: -0.288% |
| COc1cccc(C(=O)N(c2cc(C)cc(C)c2)C2CCN(C(=O)OC(C)(C)C)CC2)c1 | inactive: 1.34% |
| CCC(CO)(C(=O)OC1CN2CCC1CC2)c1ccccc1 (centres undefined) | inactive: 0.724% |
| CN1CCC(Nc2ccc(Cl)cc2)CC1 | inactive: -1.07% |
| CCCOc1ccc(C)cc1CN(CCCl)CCCl | inactive: 0.0502% |
| COc1cc(C(=O)NCC2(N3CCOCC3)CCCCC2)cc(OC)c1C | inactive: 0.446% |
| O=C(NCC1(N2CCOCC2)CCCCC1)c1cc(Br)ccc1Cl | inactive: -1.53% |
| COc1ccc(C(=O)NCC2(N3CCOCC3)CCCCC2)cc1OC | inactive: 0.257% |
| CCOC(=O)N1CCC(Nc2ccc(C)cc2)CC1 | inactive: 3.45% |
| N/C(=N\O)c1c(N)no[n+]1[O-] | inactive: 1.32% |
| O=C(OC1CN2CCC1CC2)C1c2ccccc2C=Cc2ccccc21 (centres undefined) | inactive: -1.02% |
| CCc1cc(C(=O)NCC2(N3CCCCC3)CCCCC2)sc1C | inactive: 0.543% |
| N#Cc1ccc(C(=O)NCC2(N3CCCCC3)CCCCC2)cc1 | inactive: 0.664% |
| CC(C)(C)OC(=O)N1CCC(N(C(=O)c2ccccc2)c2ccc(Cl)cc2)CC1 | inactive: -0.0334% |
| CN(C)C1(CNC(=O)c2cccc(C#N)c2)CCCCC1 | inactive: 0.157% |
| c1ccc(CN2CCC(Nc3ccccc3)CC2)cc1 | inactive: -0.369% |
| CCCN1CCC(Nc2cc(OC)cc(OC)c2)CC1 | inactive: 1.44% |
